Test results reported in patent US20160304571.

Chains of the proteins cited; added tags and fusions are not shown.
Lys29-linked diubiquitin, P0CG48, UniProt P0CG48, whole entry, looked up: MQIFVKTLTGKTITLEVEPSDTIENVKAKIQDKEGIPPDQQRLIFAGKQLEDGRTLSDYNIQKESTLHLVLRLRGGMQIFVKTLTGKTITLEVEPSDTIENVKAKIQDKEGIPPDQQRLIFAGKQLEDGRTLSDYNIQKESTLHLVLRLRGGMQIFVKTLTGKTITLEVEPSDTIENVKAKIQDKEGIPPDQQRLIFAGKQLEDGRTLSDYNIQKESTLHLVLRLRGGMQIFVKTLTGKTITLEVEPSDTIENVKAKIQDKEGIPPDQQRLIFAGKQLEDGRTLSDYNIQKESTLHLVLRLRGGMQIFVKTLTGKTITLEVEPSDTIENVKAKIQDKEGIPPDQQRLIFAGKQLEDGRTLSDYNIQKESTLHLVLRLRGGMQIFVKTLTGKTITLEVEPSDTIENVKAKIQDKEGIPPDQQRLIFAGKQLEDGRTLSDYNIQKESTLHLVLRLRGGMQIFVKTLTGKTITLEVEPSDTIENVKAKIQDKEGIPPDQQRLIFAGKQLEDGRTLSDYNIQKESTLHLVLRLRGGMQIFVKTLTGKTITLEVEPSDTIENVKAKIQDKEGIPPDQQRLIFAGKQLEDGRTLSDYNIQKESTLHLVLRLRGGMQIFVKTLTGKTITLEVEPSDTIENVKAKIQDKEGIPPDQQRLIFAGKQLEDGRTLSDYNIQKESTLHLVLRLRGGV

Tests used:
[1] = biological target: Lys29-linked diubiquitin, P0CG48
[2] = biological target: Lys63-linked diubiquitin (enzymatically assembled), P0CG48
[3] = biological target: Lys6-linked diubiquitin, P0CG48

B1: USP2 (protein)
chain: NSKSAQGLAGLRNLGNTCFMNSILQCLSNTRELRDYCLQRLYMRDLHHGSNAHTALVEEFAKLIQTIWTSSPNDVVSPSEFKTQIQRYAPRFVGYNQQDAQEFLRFLLDGLHNEVNRVTLRPKSNPENLDHLPDDEKGRQMWRKYLEREDSRIGDLFVGQLKSSLTCTDCGYCSTVFDPFWDLSLPIAKRGYPEVTLMDCMRLFTKEDVLDGDEKPTCCRCRGRKRCIKKFSIQRFPKILVLHLKRFSESRIRTSKLTTFVNFPLRDLDLREFASENTNHAVYNLYAVSNHSGTTMGGHYTAYCRSPGTGEWHTFNDSSVTPMSSSQVRTSDAYLLFYELASPPSRM
- cleavage in in vitro deubiquitinase assay (SDS-PAGE, silver stain) [1]: cleaved Lys6- and Lys63-linked diubiquitin more rapidly than Lys29-linked diubiquitin
- cleavage in in vitro deubiquitinase assay (SDS-PAGE, silver stain) [2]: cleaved Lys6- and Lys63-linked diubiquitin more rapidly than Lys29-linked diubiquitin
- cleavage in in vitro deubiquitinase assay (SDS-PAGE, silver stain) [3]: cleaved Lys6- and Lys63-linked diubiquitin more rapidly than Lys29-linked diubiquitin
